{"source": "patent US9867841B2", "about": "“Compounds, compositions and methods using E-selectin antagonists for mobilization of hematopoietic cells” (GLYCOMIMETICS, INC., priority 2012, dated 2018)", "key": {"[1]": {"system": "WBC, lymphocytes, monocytes, eosinophils, and neutrophils in circulation", "assay": "Mobilization of blood cells in CD-1 mice (Example 5, FIG. 5)", "assay_type": "in vivo", "details": "tested form: Na salt"}, "[2]": {"system": "neutrophils in the blood", "assay": "Mobilization of neutrophils in mice (Example 4, FIG. 4)", "details": "single intravenous dose of 20, 40, or 60 mg/kg, blood at 2, 3, and 6 hours, tested form: Na salt", "procedure": "FIG. 4 illustrates mobilization of neutrophils by an exemplary E-selectin antagonist, Compound 25. Groups of animals received Compound 25 at doses of 20 mg/kg (Cmpd 25 (20)), 40 mg/kg (Cmpd 25 (40)), or 60 mg/kg (Cmpd 25 (40)). Another group of animals received 3 mg/kg of plerixafor (AMD-3100). Neutrophils were enumerated (K/μl) in blood samples taken at 2, 3, and 6 hours after dosing.\nThis example describes hematopoietic stem cell mobilization by an exemplary E-selectin antagonist. Groups of mice (16 mice per group) received a single dose of 20, 40, or 60 mg/kg of Compound 25 or 3 mg/kg of plerixafor (also called AMD-3100), which is a CXCR4 antagonist. These compounds were administered once intravenously. A control group of 8 animals received vehicle only. Blood samples were taken at 2, 3, and 6 hours after dosing and analyzed for complete blood count (CBC). Neutrophils were enumerated (K/μl) (i.e., 1000's per microliter) in each sample at each time point."}, "[3]": {"assay": "Tolerability in mice", "assay_type": "in vivo", "details": "tested form: Na salt"}}}
{"molecule": "CCC1CC(C(=O)NCCNC(=O)CCOCCOCCOCCOCCOCCOCCOCCOCCOCCOCCOCCOC)CC(OC2OC(CO)C(O)C(OC(CC3CCCCC3)C(=O)O)C2NC(C)=O)C1OC1OC(C)C(O)C(O)C1O", "note": "(stereo not shown)", "values": [{"measurement": "time of peak mobilization", "setting": "[1]; most cell types, 20, 40 or 60 mg/kg intravenous", "result": 3, "unit": "h"}, {"measurement": "level of total WBC, lymphocytes, monocytes, eosinophils, and neutrophils in circulation", "setting": "[1]; single intravenous dose of 20, 40 or 60 mg/kg (all dose levels), blood at 2, 3, and 6 hours", "result": "increased the level of total WBC, lymphocytes, monocytes, eosinophils, and neutrophils in circulation"}, {"measurement": "number of neutrophils in the blood (mobilization)", "setting": "[2]", "result": "increased number of the neutrophils in the blood"}, {"measurement": "tolerated dose", "setting": "[3]", "result": 1000, "unit": "mg/kg"}]}
